Test results: article PMC10165889 (2023)

Sequences of proteins named here, by UniProt entry; tags and fusion partners are left off. Residues count along the entry.
UniProt P25440, 344-453 limits assumed: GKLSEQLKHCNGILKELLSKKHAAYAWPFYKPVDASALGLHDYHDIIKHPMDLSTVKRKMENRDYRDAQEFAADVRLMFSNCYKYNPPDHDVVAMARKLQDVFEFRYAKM

Target: BRD2(BD2) (Homo sapiens, UniProt P25440)
Assay: TR-FRET binding assay, BRD2

`Cc1sc2c(c1C)C(c1ccc(Cl)cc1)=N[C@@H](CC(=O)Nc1ccc(O)cc1)c1nnc(C)n1-2` [reference compound] gave an IC50 of 3.2 nM.
